The target of this experiment is Cyclin-dependent kinase 5/CDK5 activator 1 (Homo sapiens, UniProt Q00535). The experiment in a line: Inhibition of Cyclin-dependent kinase 5-p35nck5a. It counts as protein-complex assay. In a few lines:
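Recombinant CDK5 and p25 (truncated p35), each expressed in E. coli as a GST fusion and glutathione-agarose purified, mixed in equal amounts. Assayed in buffer C with histone H1 and 15 µM [γ-33P]ATP, 10 min at 30 °C. Read by P81 filter capture and scintillation counting. Expressed as % of uninhibited activity. Duplicates; IC50 determined.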

Protein sequences, listed by entry. Tags and fused reporters are not part of them.
UniProt Q00535, whole entry: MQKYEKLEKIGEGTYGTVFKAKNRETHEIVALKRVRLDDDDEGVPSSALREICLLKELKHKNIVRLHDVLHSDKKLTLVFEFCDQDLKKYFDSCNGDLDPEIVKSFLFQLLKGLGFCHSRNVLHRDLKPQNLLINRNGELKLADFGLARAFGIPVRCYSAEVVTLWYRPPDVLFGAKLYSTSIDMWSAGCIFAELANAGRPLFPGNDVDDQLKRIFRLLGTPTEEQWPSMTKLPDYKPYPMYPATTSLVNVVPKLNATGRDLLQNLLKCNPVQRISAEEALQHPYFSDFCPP

The record followed here is ChEMBL document CHEMBL1149190, “Generation of new protein kinase inhibitors utilizing cytochrome p450 mutant enzymes for indigoid synthesis” (J Med Chem, 2004).

For orientation: IC50 means the concentration that gives 50% inhibition. Read a low IC50 as greater potency. `O=C1Nc2ccccc2/C1=C1/Nc2ccccc2C1=O` [INDIRUBIN]: the IC50 is 5 µM.
